Experimental data as given in patent US10988531B2, “Conjugates comprising cell-binding agents and cytotoxic agents” (ImmunoGen, Inc., priority 2014, dated 2021).

B1: huMOV19-sSPDB-Compound A (conjugate)
heavy: QVQLVQSGAEVVKPGASVKISCKASGYTFTGYFMNWVKQSPGQSLEWIGRIHPYDGDTFYNQKFQGKATLTVDKSSNTAHMELLSLTSEDFAVYYCTRYDGSRAMDYWGQGTTVTVSSASTKGPSVFPLAPSSKSTSGGTAALGCLVKDYFPEPVTVSWNSGALTSGVHTFPAVLQSSGLYSLSSVVTVPSSSLGTQTYICNVNHKPSNTKVDKKV[human IgG1 Fc left out here]
light: DIVLTQSPLSLAVSLGQPAIISCKASQSVSFAGTSLMHWYHQKPGQQPRLLIYRASNLEAGVPDRFSGSGSKTDFTLTISPVEAEDAATYYCQQSREYPYTFGGGTKLEIKRTVAAPSVFIFPPSDEQLKSGTASVVCLLNNFYPREAKVQWKVDNALQSGNSQESVTEQDSKDSTYSLSSTLTLSKADYEKHKVYACEVTHQGLSSPVTKSFNRGEC
B2: huMOV19-D2: lysine-linked conjugate of huMOV19 with D2 (conjugate)
heavy: B1 heavy
light: B1 light

Tests used:
KB cells = test: in vitro cytotoxicity (WST-8) on KB cells; format: cell-based; conditions: in the presence of 1 μM unconjugated huMOV19
Experimental: 100 μl/well of each ADC was diluted in RPMI-1640 (Life Technologies) supplemented with heat-inactivated 10% FBS (Life Technologies) and 0.1 mg/ml gentamycin (Life Technologies) in a 96-well plate (Corning, flat bottom) at starting concentrations of 3.5×10^−9 M to 3.5×10^−8 M in triplicate and serially diluted 3-fold in media above at ambient temperature. KB cells (buccal epithelial tumor), grown in EMEM (ATCC) supplemented with heat-inactivated 10% FBS (Life Technologies) and 0.1 mg/ml gentamycin (Life Technologies), were washed once in PBS and removed with 0.05% trypsin-EDTA (Life Technologies). Other cells tested were NCI-H2110 (NSCLC) and T47D (breast epithelial) grown in RPMI-1640 (LifeTechnologies) supplemented with heat-inactivated 10% FBS (Life Technologies) and 0.1 mg/ml gentamycin (Life Technologies). T47D media also was supplemented with 0.2 IU/ml bovine insulin. All cells were resuspended in growth media (see above) to neutralize trypsin and counted on a Coulter counter. […] After incubation, cell viability was analyzed by addition of 20 μl/well WST-8 (Dojindo) and allowed to develop for 2 hr. Absorbance was read on a plate reader at 450 and 620 nm. Absorbances at 620 nm were subtracted from absorbances at 450 nm. Background in wells containing media only was further subtracted from corrected absorbances and surviving fraction (SF) of untreated cells was calculated in Excel. […]

[1] = in vivo tolerability study in CD-1 mice; conditions: female CD-1 mice, intravenous, D2 drug dose
Experimental: Female CD-1 mice (7 weeks of age) were obtained from Charles River Laboratories.
Mice were randomized into three groups by body weight. The body weights ranged from 25.6 to 24.1 grams with an average of 25 grams. […] Administration of all conjugates was carried out intravenously with a 1.0 ml syringe fitted with a 27 gauge, ½ inch needle. Individual body weights were measured at the indicated time points in FIG. 29 and the % change is graphed vs. time (days). Each line represents the body weight changes of one mouse. Animals that were moribund or experienced body weight loss >20% were sacrificed, as this is defined as an intolerable dose.

Molecule	antigen-independent potency of the two conjugates (KB cells)	maximum tolerated dose (MTD) [1]
B1	nearly identical	
B2		~100 µg/kg
